In patent US20090238760A1, “ANTISPERMATOGENIC, SPERMICIDAL AND/OR ANTIFUNGAL COMPOSITION AND METHODS OF USING THE SAME” (Research Triangle Institute, priority 2006, published 2009):

System: testes / spermatogenesis in Swiss (CD-1) mice
Assay: Spermatogenic Index test: testes weight and spermatogenic index after a single oral dose
Format: in vivo, mouse
Details: for Spermatogenic Index / Testes Weight: male CD-1 mice, mean ± SEM, n=5; for Spermatogenic Index: 72 h, scale 1 to 6, 5 to 6 normal, vehicle control 5.5 ± 0.16; for Testes Weight: killed 72 h later, vehicle control 204 ± 11.9
Protocol: The compounds of the invention were tested in mice for their effects on spermatogenesis three days after a single oral dose by the procedure described in Cook et al (J. Med. […] Compounds active in this test have been shown also to be anti-fertility compounds. Compounds were screened for antispermatogenic activity by dosing male mice on day 1 with a gavage dose of control vehicle, positive control (compound 1) or compound of the invention. At 72 h after dosing, animals were killed and the testes were excised, trimmed of fat, and weighed. One testis was examined histologically and rated for spermatogenic potential using the Spermatogenic Index [[…]. Noden, J. Cherry and […]. Reprod. […], 72, 277 (1984)], which is a semiquantitative estimate of the sperm producing ability of the testes. The index is based on histological appearance of the spermatogenic cells in the seminiferous tubules. A scale of 1 to 6 is used with 5 to 6 being the normal status. A second assessment was based on the weight of the testes. […] Compounds were given orally to 8-week old male CD-1 mice in a single dose. Seventy-two hours later the animals were killed and the testes weighed. One testis was subjected to histological analysis and scored according to the Spermatogenic Index (SI) of Fail (see Cook et ah, J. Med. […] RTI-4587-056(l), and a vehicle control group was also analyzed.

[1] = single oral dose 5 mg/kg (racemic compounds)
[2] = single oral dose 1.2 mg/kg (racemic compound)

## (4aRS,5SR,9bRS)-5-(4-Carboxylphenyl)-2-ethyl-2,3,4,4a,5,9b-hexahydro-8-iodo-7-methyl-1H-indeno-[1,2-c]pyridine ((S)-2,2-Dimethyl-1,3-dioxolan-4-yl)methyl ester
[1]
  Spermatogenic Index: 3.91 ·
  Testes Weight: 152.0 ± 5.9 mg

## (4aS, 5R,9bS)-5-(4-Carbomethoxyphenyl)-2-ethyl-2,3,4,4a,5,9b-hexahydro-7-methyl-8-{2-[4-(N-pyrrolidinonyl)phenyl]ethynyl}-1H-indeno[1,2-c]pyridine
Single oral dose 20 mg/kg
  Spermatogenic Index: 2.75 ·
  Testes Weight: 133.0 ± 5.7 mg

## (4aRS,5SR,9bRS)-5-(4-Carboxyphenyl)-2-ethyl-2,3,4,4a,5,9b-hexahydro-8-iodo-7-methyl-1H-indeno-[1,2-c]pyridine(S)-2,3-Dihydroxypropyl ester Hydrochloride
[1]
  Spermatogenic Index: 3.2 ·
  Testes Weight: 168.2 ± 16.4 mg

## (4aRS, 5SR,9bRS-5-(4-Carboxylphenyl)-2-ethyl-2,3,4,4a,5,9b-hexahydro-8-iodo-7-methyl-1H-indeno-[1,2-c]pyridine n-Hexyl ester Hydrochloride
Esters of the 8-iodo carboxylic acid, analogous to RTI-4587-073
  antispermatogenic activity (in words): had activity
[2]
  Spermatogenic Index: 3.93 ·
  Testes Weight: 154.4 ± 6.2 mg

## (4aS, 5R,9bS)-5-(4-Carbomethoxyphenyl)-2-ethyl-2,3,4,4a,5,9b-hexahydro-7-methyl-8-(1-(2-piperidin-1-yl)ethyl)-1H-1,2,3-triazole-4-yl)-1H-ideno[1,2-c]pyridine
Single oral dose 20 mg/kg
  Spermatogenic Index: 5.20 ± 0.06
  Testes Weight: 195.5 ± 12.6 mg

## (4aRS, 5SR, 9bRS)-5-(4-Carboxylphenyl)-2-ethyl-2,3,4,4a,5,9b-hexahydro-8-iodo-7-methyl-1H-indeno-[1,2-c]pyridine 3-hydroxypropyl ester Hydrochloride
[1]
  Spermatogenic Index: 3.06 ·
  Testes Weight: 161.1 ± 4.1 mg

## (4aRS,5SR,9bRS)-5-(4-Carboxylphenyl)-2-ethyl-2,3,4,4a,5,9b-hexahydro-8-iodo-7-methyl-1H-indeno-[1,2-c]pyridine (R)-2,3-Dihydroxy propyl ester Hydrochloride
[1]
  Spermatogenic Index: 3.04 ·
  Testes Weight: 170.1 ± 11.7 mg

## (4aRS,5SR,9bRS)-5-(4-Carboxylphenyl)-2-ethyl-2,3,4,4a,5,9b-hexahydro-8-iodo-7-methyl-1H-indeno-[1,2-c]pyridine ((R)-2,2-Dimethyl-1,3-dioxolan-4-yl)methyl ester
[1]
  Spermatogenic Index: 2.92 ·
  Testes Weight: 156.0 ± 3.2 mg
